# Measurements: PMC3036719
# Biological target: fibrinogen fragment D (human)
# Assay: bacterial cell adhesion ELISA; wells coated with 1 µg human fibrinogen or fragment D, blocked with 20 mg/mL BSA; 3×10^8 leptospires, 1 h at 30°C; adherent cells fixed with formaldehyde and detected with a rabbit antibody to L. biflexa; increase over wild-type L. biflexa
substance,measurement,value
LigB from L. interrogans expressed on L. biflexa (ligB transformant) (natural protein),percent increase of adhesion over wild-type L. biflexa,73%
